Test system: Toxoplasma gondii
Test: microbe, parasite or virus in culture

Compound	EC50 [nM]
CCOc1ccc2cc(-c3nn(C(C)(C)C)c(N)c3C(N)=O)ccc2c1	390
COc1ccc2cc(-c3nn(C(C)(C)C)c(N)c3C(N)=O)ccc2c1	72
NC(=O)c1c(-c2ccc3ccccc3c2)nn(CC(F)(F)F)c1N	260
CC(C)(C)n1nc(-c2cnc3ccccc3c2)c(C(N)=O)c1N	1100
CC(C)(C)Cn1nc(-c2ccc3ccccc3c2)c(C(N)=O)c1N	320

Reference: ChEMBL document CHEMBL3108667, “Potent and selective inhibitors of CDPK1 from T. gondii and C. parvum based on a 5-aminopyrazole-4-carboxamide scaffold” (ACS Med Chem Lett, 2014)
